Experiments:
SKBR3 cells [1] = assay: Immune-dependent cytotoxicity (ADCC) assay with PBMC effector cells, SKBR3 target cells; type: cell-based, human
Experimental: (§1) Tumor cells were cultured as described above.

HCC1569 cells = assay: Immune-dependent cytotoxicity (ADCC) assay with PBMC effector cells, HCC1569 target cells; type: cell-based, human
Experimental: as §1

MDA-MB-468 cells = type: cell-based, human; conditions: cell line MDA-MB-468, Table 2
Experimental: as §1

SKBR3 cells [2] = assay: Immune-dependent cytotoxicity assay with CD56-enriched or CD56-depleted PBMCs; type: cell-based, human; conditions: FIG. 6A
Text: To better understand the dynamin inhibition-mediated increase in the sensitivities of breast cancer cell line to the mAb-mediated immune-dependent cytotoxicity, it was important to identify the PBMC cell subset which contributed to this effect in the in vitro assay. NK cells (Chung et al., 2014; Schnueriger et al., 2011), which express FcγRIII with high binding affinity for IgG1 were chosen to be examined in the context of mAb-mediated immune-dependent cytotoxicity assays by using CD56-depleted or enriched PBMCs a effector cells as opposed to unsorted PBMCs. […] Moreover, a comparison of the efficacy of mAbs which bind to same antigen, and display distinct IgG domains (IgG1 and IgG2) was made.
Approximately 4.0×10^7 PBMCs were isolated as described and concentrated by centrifugation at 1000×g for 10 min and resuspended into medium as described above. PBMCs were stained with anti-human CD56 conjugated Allophycocyanin (APC) antibody (Affymetrix, eBiosciences; Santa Clara, USA) in accordance with the manufacturer's instructions (Affymetrix, eBiosciences). […] Cells were sorted using Beckman and Coulter Moflo® Astrios cell sorter. Approximately 4.0×10^7 unstained cells were maintained separately. […] The same was conducted for conditions containing CD56-cell populations. […] Tubes were incubated at 37° C. for 4-hours.

[3] = test system: HER2 positive breast cancer; conditions: clinical, literature (Narayan et al., 2009; Wolff et al., 2007); cited from earlier work
BT474 cells = assay: Immune-dependent cytotoxicity (ADCC) assay with PBMC effector cells, BT474 target cells
MDA-MB-231 cells = assay: Immune-dependent cytotoxicity (ADCC) assay with PBMC effector cells, MDA-MB-231 target cells

Trastuzumab: therapeutic mAb (humanized) which binds the extracellular domain of HER2
Sensitivity to Trastuzumab mediated cytotoxicity in the presence of PBMCs (specific target cell death) (SKBR3 cells [1]; SKBR3 cells + PBMC, compared with un-treated controls, FIG. 2A): highly and significantly sensitive | Therapeutic antibody Sensitive/Resistant (SKBR3 cells [1]; cell line SKBR3, Table 2): Sensitive | Sensitivity to Trastuzumab-mediated cytotoxicity (specific target cell death) (HCC1569 cells; HCC1569 cells + PBMC, FIG. 2C): insensitive | Therapeutic antibody Sensitive/Resistant (HCC1569 cells; cell line HCC1569, Table 2): Resistant | Therapeutic antibody Sensitive/Resistant (MDA-MB-468 cells): Resistant | Specific cell death of SKBR3 cells treated with Trastuzumab (SKBR3 cells [2]; CD56-enriched fractionated PBMC population, vs untreated controls, Trastuzumab 60 μg/mL): increased in comparison to untreated controls | SKBR3 cell death with Trastuzumab (SKBR3 cells [2]; CD56 depleted PBMCs): negligible | Patients with HER2 positive breast cancer who benefit from Trastuzumab [3]: less than 35% | Sensitivity to Trastuzumab-mediated immune-dependent cytotoxicity (BT474 cells; BT474 cells + PBMC, FIG. 2B): sensitive | Therapeutic antibody Sensitive/Resistant (BT474 cells; cell line BT474, Table 2): Sensitive | Sensitivity to Trastuzumab treatment (immune dependent cytotoxicity assay) (MDA-MB-231 cells; MDA-MB-231 cells (HER2 negative control) + PBMC, FIG. 2D): considered insensitive | Therapeutic antibody Sensitive/Resistant (MDA-MB-231 cells; cell line MDA-MB-231, Table 2): Resistant

Reference: US20240272164A1, “METHODS FOR CLASSIFYING TUMORS AND USES THEREFOR” (THE UNIVERSITY OF QUEENSLAND, priority 2015, published 2024)
